# Ab-95 light chain CDR variants: yeast mating affinities

Binding partner: SARS-CoV-2 spike HR2 peptide, sequence PDVDLGDISGINAS.

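Phage display of a naive human antibody library on the peptide gave the parent. Library AAYL52 holds single substitutions and randomly drawn double and triple substitutions in the CDRs. The assay is AlphaSeq: two haploid yeast populations carry antibody and antigen on their surface. The frequency of each diploid, read from paired DNA barcodes, reflects how well the two displayed proteins bind. Each replicate has its own calibration line, from reference interactions of the BCL2 family. Mating was done three times.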

Parent: Ab-95, a human scFv built as VH, a (GGGGS)3 linker, VL. Only the CDRs of the light chain vary.
VH: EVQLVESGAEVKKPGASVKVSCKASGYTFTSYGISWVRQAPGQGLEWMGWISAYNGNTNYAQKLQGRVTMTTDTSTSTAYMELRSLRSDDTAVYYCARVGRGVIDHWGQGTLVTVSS
VL: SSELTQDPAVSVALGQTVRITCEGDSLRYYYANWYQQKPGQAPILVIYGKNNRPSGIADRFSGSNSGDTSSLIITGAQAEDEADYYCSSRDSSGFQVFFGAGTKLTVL

The parent's light chain CDRs are EGDSLRYYYAN, GKNNRPS, SSRDSSGFQVF; each variant's own CDRs replace them letter for letter.
Every variant below is changed at F95 of the VL (sequential numbering).
The read-out is the apparent dissociation constant on a log10 scale (nM): the lower, the stronger.
"ND" marks a missing value. The strain was present, yet no cells mated with the target were sequenced in that replicate, which points to weak or no binding.
In this assay the parent's reference entry averaged 2.31; its copy inside this library read 2.25.
Three control strains display no target. For library AAYL52, 28% of the pairings with them gave a signal, with a median of 3.91 and one signal in twenty below 2.90, so weak values seen in few replicates may be background. The control count says in how many pairings with the empty strains this scFv gave a signal.

For EGDSLRYYYAW / GKNNRPS / SSRDSSGPQVF, the assay gave ND, 3.66, 3.81 (controls 1 of 9). Variant EGDSLRYRYAN / GKSNRPS / SSRDSSGVQVF showed 2.36, 2.55, 2.27 (controls 4 of 9). For EGDSTRYGYAN / GKNNRPS / SSRDSSGVQVF, the assay gave 3.20, 3.51, 3.69 (controls 2 of 9). Variant EGDSLRYYYAN / GKNNRPS / SSRDSSGWQVF showed ND, ND, ND (controls 0 of 9). For EGDSLRYYYAN / GKINRPS / SSRDPSGAQVF, the assay gave 3.91, 4.69, ND (controls 2 of 9). With EGDSLRYYYAG / GKNNRPS / SSRDWSGPQVF the result was ND, 4.31, ND (controls 2 of 9). Variant EGVSLRYYYAF / GKNNRPS / SSRDSSGLQVF showed 3.50, ND, ND (controls 1 of 9). Variant EWDSLRYYYAN / GKNNRPS / SSRDSSGKQVF gave 3.10, 3.49, 3.35 (controls 4 of 9). Variant EGDSSRYYYAN / GKNNRVS / SSRDSSGYQVF showed 4.47, 4.05, 3.29 (controls 4 of 9).

Variant EGDSLRYYYAN / GKNNRPS / GSRDSSGHQVF gave ND, ND, 3.44 (controls 0 of 9). For EGDSLRYYYAN / GKNNRPS / SSRDSSGCQVF, the assay gave 2.85, 2.92, 3.63 (controls 4 of 9). Variant EGDMLRYYYAN / GKNNRPS / SSRDSSGPNVF gave 3.25, ND, ND (controls 4 of 9). Variant EGDSLRYYYAN / GKNNRAS / SSRDSSFSQVF showed 2.69, 2.54, 2.28 (controls 1 of 9). Variant EGDQLRYYYAN / GKNNRPS / SSRPSSGLQVF gave 4.46, 3.44, ND (controls 5 of 9). For EGDSLRYYYAN / GKNNRPS / SSRDSDGKQYF, the assay gave 3.52, ND, 4.37 (controls 3 of 9). For EQDSLCYYYAN / GKNNRPS / SSRDSSGTQVF, the assay gave 3.96, 3.14, ND (controls 3 of 9). Variant EGDSLRDYYAN / GKNNRAS / SSRDSSGKQVF showed 3.26, 2.18, 1.92 (controls 2 of 9). Variant EGDSLINYYAN / GKNNRPS / SSRDSSGHQVF gave 1.90, 1.62, 1.25 (controls 1 of 9).

For EGDELDYYYAN / GKNNRPS / SSRDSSGRQVF, the assay gave 3.53, 3.78, 4.44 (controls 2 of 9). Variant EGDSLRYYYAN / GKNTRPS / SSRDSEGGQVF showed 2.39, 2.30, 3.86 (controls 1 of 9). Variant EGDSLRYYYAN / GKNNRPS / SSRDSVGNQTF showed 3.77, ND, ND (controls 2 of 9). For EGDSLRYYYAN / GKGNRPS / NSRDSSGWQVF, the assay gave 3.41, 3.69, 2.11 (controls 5 of 9). Variant EGDSLRYYYAN / GKGNRPS / SSRDSSGEQVF showed 2.71, 2.31, 3.25 (controls 2 of 9). For EGDSLYYYYAN / GINNRPS / SSRDSSGAQVF, the assay gave 3.26, 2.95, 2.59 (controls 0 of 9). For EGDSLRYYYVN / GKNTRPS / SSRDSSGIQVF, the assay gave 2.90, 3.71, ND (controls 3 of 9). Variant EKDSLRYYYAN / GKNRRPS / SSRDSSGTQVF showed ND, ND, ND (controls 0 of 9). Variant EGDSLRYYYAN / GKNRRPS / SSSDSSGYQVF gave 4.12, ND, 3.51 (controls 5 of 9).

For EGDSLRYYYAN / GKNNRPS / SSRDSSGMQVF, the assay gave 2.24, 2.56, 2.66 (controls 0 of 9). With EGDSLRGYYAN / GKNNRPS / SSNDSSGYQVF the result was ND, ND, ND (controls 5 of 9). With EEDSLRYYYAN / GKNNRPS / SSRDSPGWQVF the result was 3.62, 4.76, ND (controls 7 of 9). Variant EGDSLRYYYAN / TKNNRPS / SSRDSSEAQVF showed 5.09, 4.62, ND (controls 4 of 9). For ENDSLRYYYAT / GKNNRPS / SSRDSSGEQVF, the assay gave 5.00, ND, ND (controls 3 of 9). Variant EGDSLRYYYMN / GDNNRPS / SSRDSSGCQVF gave 2.81, 2.90, 4.10 (controls 2 of 9). Variant EGDSLRYYYAE / GKNNRPS / SSRDSSGWQVF gave ND, ND, ND (controls 4 of 9). Variant EGDSLRYYYAN / GKNNKPS / SSRDDSGCQVF gave 2.23, 2.13, 2.34 (controls 2 of 9). For HGDSLRYYYAN / GKNNRPS / SSRDSSGRQVN, the assay gave ND, ND, ND (controls 0 of 9).

The last 5 entries again:

The variant ENDSLRYYYAT / GKNNRPS / SSRDSSGEQVF showed 5.00, ND, ND (controls 3 of 9).
The variant EGDSLRYYYMN / GDNNRPS / SSRDSSGCQVF showed 2.81, 2.90, 4.10 (controls 2 of 9).
The variant EGDSLRYYYAE / GKNNRPS / SSRDSSGWQVF showed ND, ND, ND (controls 4 of 9).
The variant EGDSLRYYYAN / GKNNKPS / SSRDDSGCQVF showed 2.23, 2.13, 2.34 (controls 2 of 9).
The variant HGDSLRYYYAN / GKNNRPS / SSRDSSGRQVN showed ND, ND, ND (controls 0 of 9).

Values reported by Engelhart et al. 2022, doi:10.1038/s41597-022-01779-4 (FLAb copy).